Laboratory results published in patent publication US20260118347A1 (PENN STATE RESEARCH FOUNDATION, published 2026).

Biological target: T1, apo-LanD (wild-type M. extorquens LanD, landiscernin, META1p1781, with C-terminal Tyr-Gly addition) (Methylobacterium (Methylorubrum) …)
T1 construct: Metal-free monomer; self-association (Kdimer) is written as m1 with m1; Disulfide between helices 1 and 3; also called WT; WT-LanD w/o signal peptide
Assay: ITC, 240 µM apo-Mex-LanM titrated into 30 µM apo-LanD, independent model; 30 mM MOPS, 100 mM KCl, pH 7.0, 25 C

ΔH: 1.69 kcal/mol
ΔS: 30.6 cal/mol · K
B1: apo-Mex-LanM (metal-free lanmodulin from Methylobacterium (Methylorubrum) extorquens) (other, UniProt C5B164 22-133, looked up)
chain: APTTTTKVDIAAFDPDKDGTIDLKEALAAGSAAFDKLDPDKDGTLDAKELKGRVSEADLKKLDPDNDGTLDKKEYLAAVEAQFKAANPDNDGTIDARELASPAGSALVNLIR
notes: also called apo-LanM; M. extorquens LanM
